# Earlier results, collected in patent US8809354B2, “3-amino-2-(4-nitrophenyl)-4-(3H)-quinazolinone or derivatives thereof for treating or preventing antiviral infections” (priority 2011, dated 2014).
# System: HCV
# Details: patients; cited from earlier work
compound,measurement,value
"NC(=O)c1ncn([C@@H]2O[C@H](CO)[C@@H](O)[C@H]2O)n1 [Ribavirin, 1-β-D-ribofuranosyl-1-1,2,4-triazole-3-carboxamide]",Toxicity,known to induce anemia
